Laboratory results from publication PMC6102074 (European journal of medicinal chemistry, 2018).

SMILES: CC(C)Oc1ccccc1C(=O)Nc1ccccc1C(=O)Nc1cccc(S(=O)(=O)C(F)(F)F)c1 [Compound 65, 2-Isopropoxy-N-(2-(3-(trifluoromethylsulfonyl)phenylcarbamoyl)phenyl)benzamide]
- mortality in maximum tolerated dose study (C57/Bl6 mice; PO, 90, 300 and 3000 mg/kg, 5 day with 5 day post-dosing observation, C57/Bl6 mice): no mortality observed
- abnormalities post-necropsy (C57/Bl6 mice; any of the in vivo mammalian studies): No obvious abnormalities were noted
- Cmax (PO 30 mg/kg, plasma, male C57/Bl6 mice): 0.30 ng/mL
- toxicity or abnormal behavior (mice, IV and PO PK study): no toxicity or abnormal behavior were detected
